Values of other authors as cited in publication PMC7666069 (Journal of medicinal chemistry, 2020).

System: male mice
Settings: 34 days of 15 or 30 mg/kg daily; cited from earlier work

For C=C(C)[C@@H]1CCC(C)=C[C@H]1c1c(O)cc(CCCCC)cc1O [CBD, Cannabidiol], the “reproductive toxicity (testosterone, spermatogenesis, daily sperm production, sperm morphology)” value is given as “significant changes in several measures of reproductive health”.
